Reference: ChEMBL document CHEMBL2057156, “Synthesis and biological evaluation of the first dual tyrosyl-DNA phosphodiesterase I (Tdp1)-topoisomerase I (Top1) inhibitors” (J Med Chem, 2012)

By UniProt entry, the sequences of proteins in these tests, tags left out.
UniProt Q9NUW8, whole entry: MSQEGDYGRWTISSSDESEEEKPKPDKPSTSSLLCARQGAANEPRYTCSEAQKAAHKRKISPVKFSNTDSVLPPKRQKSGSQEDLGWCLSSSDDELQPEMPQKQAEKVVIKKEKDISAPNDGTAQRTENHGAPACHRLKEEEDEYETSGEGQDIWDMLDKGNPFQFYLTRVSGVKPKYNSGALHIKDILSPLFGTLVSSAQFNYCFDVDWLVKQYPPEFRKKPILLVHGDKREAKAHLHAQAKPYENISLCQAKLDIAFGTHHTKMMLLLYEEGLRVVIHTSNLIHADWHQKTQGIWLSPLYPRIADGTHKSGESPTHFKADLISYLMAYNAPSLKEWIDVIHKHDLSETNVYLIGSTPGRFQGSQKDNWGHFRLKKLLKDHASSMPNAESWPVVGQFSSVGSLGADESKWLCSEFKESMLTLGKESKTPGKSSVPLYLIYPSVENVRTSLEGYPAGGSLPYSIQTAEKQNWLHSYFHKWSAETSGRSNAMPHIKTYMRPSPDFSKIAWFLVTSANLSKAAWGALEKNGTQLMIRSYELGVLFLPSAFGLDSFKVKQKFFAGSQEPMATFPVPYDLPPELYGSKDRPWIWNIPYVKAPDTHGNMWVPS

What was measured:
[1] = target: T1, Tyrosyl-DNA phosphodiesterase 1 (Homo sapiens, UniProt Q9NUW8); assay: Inhibition of human recombinant Tdp1 using 5'-[32P]-labeled single-stranded DNA oligonucleotide containing 3'-phosphotyrosine as substrate assessed as prevention of generation of oligonucleotide with free 3'-phosphate after 15 mins by PAGE analysis
[2] = target: T1, Tyrosyl-DNA phosphodiesterase 1; assay: Competitive inhibition of human recombinant Tdp1 after 1 hr by FRET assay

| IC50 [1] [µM] | SMILES | inhibition [1] | also measured |
| --- | --- | --- | --- |
| > 111 | O=C1c2ccccc2-c2c1c1ccccc1c(=O)n2CCCCCCO | – | – |
| – | NCCCCCCCCCCCCn1c2c(c3ccccc3c1=O)C(=O)c1ccccc1-2 | Dose-dependent effect | – |
| – | NCCCn1c2c(c3ccccc3c1=O)C(=O)c1ccccc1-2 | – | Ki [2]: 3.19 µM |
| > 111 | O=C1c2ccccc2-c2c1c1ccccc1c(=O)n2CCCCCCCO | – | – |
| – | NCCCCCCCCCCCn1c2c(c3ccccc3c1=O)C(=O)c1ccccc1-2 | Dose-dependent effect | – |
| – | NCCCCCCCCCCn1c2c(c3ccccc3c1=O)C(=O)c1ccccc1-2 | Dose-dependent effect | – |
